Laboratory results taken from patent US10300065B2, “Method of treating or prevention of atherothrombotic events in patients with history of myocardial infarction” (ASTRAZENECA AB, priority 2015, dated 2019).

Experiments:
[1] = test system: patients with a history of myocardial infarction; assay: PEGASUS-TIMI 54 analysis by time from P2Y12 inhibitor withdrawal to randomization; conditions: for hazard ratio for cardiovascular death, myocardial infarction, or stroke: 60 mg bid arm; for CVD, MI, or Stroke: Hazard Ratio: doses pooled vs. placebo, N = 17,885 patients with no history of MI or PCI within one year of randomization
[2] = test system: patients with a history of myocardial infarction; assay: PEGASUS-TIMI 54 trial, efficacy endpoints (intention-to-treat / full analysis set); type: in vivo, human; conditions: for Relative risk reduction (RRR) for the composite endpoint: 60 mg bid vs placebo
Description: The PEGASUS-TIMI 54 trial (also referred to as the PEGASUS trial or PEGASUS study herein) was a randomized, double-blind, placebo-controlled multinational clinical trial that enrolled over 21,000 patients at 1,161 sites in 31 countries. The protocol was approved by the relevant ethics committees at all participating sites. In the U.S., the PEGASUS trial was assigned a ClinicalTrials.gov number of NCT01225562. Results from the PEGASUS trial were discussed in Bonaca, Marc P., et al. “Long-term use of ticagrelor in patients with prior myocardial infarction.” New England Journal of Medicine 372.19 (2015): 1791-1800.
Patients could be randomized regardless of their prior adenosine diphosphate (ADP) receptor blocker therapy or a lapse in therapy.
Eligible patients were randomized in a 1:1:1 ratio to receive ticagrelor 90 mg orally twice daily, ticagrelor 60 mg orally twice daily, or placebo. Randomization was performed using a central computerized telephone or web based system, and allocation was double-blind.
All patients enrolled in the PEGASUS trial were instructed to take open label aspirin at a dose of 75 to 150 mg daily. Because the study population was stable, no loading dose of ticagrelor was administered.
A total of 1360 primary endpoint events would be required to provide approximately 90% power to detect a 20% relative risk reduction with the 90 mg twice daily dose and approximately 83% power to detect a 19% relative risk reduction with the 60 mg twice daily dose when each dose was compared individually with placebo. The primary efficacy analysis was conducted on an intention-to-treat basis, with each of the two doses individually compared to placebo, as a time to event analysis from randomization to the first occurrence of any element of the primary composite endpoint: cardiovascular death, myocardial infarction, or stroke. […] An exploratory analysis of both doses combined compared with placebo was prespecified.

[3] = cited from earlier work
[4] = test system: patients with a history of myocardial infarction

Q: With `CCCSc1nc(N[C@@H]2C[C@H]2c2ccc(F)c(F)c2)c2nnn([C@@H]3C[C@H](OCCO)[C@@H](O)[C@H]3O)c2n1` [Ticagrelor, (1S,2S,3R,5S)-3-[7-{[(1R,2S)-2-(3,4-difluorophenyl)cyclopropyl]amino}-5-(propylthio)-3H-[1,2,3]-triazolo[4,5-d]pyrimidin-3-yl]-5-(2-hydroxyethoxy)cyclopentane-1,2-diol] as the molecule, how does the “hazard ratio for cardiovascular death, myocardial infarction, or stroke” value (“hazard ratio for cardiovascular death” for short) ([1]; 31 days to one year after P2Y12 therapy withdrawal) read?
A: 0.82

Q: And the “hazard ratio for cardiovascular death” value ([1]; more than one year after P2Y12 therapy withdrawal)?
A: 1.06

Q: And the “hazard ratio for cardiovascular death” value ([1]; within 30 days of P2Y12 therapy withdrawal)?
A: 0.75

Q: What about the “CVD, MI, or Stroke: Hazard Ratio” value ([1]; P2Y12 inhibitor withdrawal 0-30 day) of the same molecule?
A: 0.73 (95% CI 0.60-0.87)

Q: What about the “CVD, MI, or Stroke: Hazard Ratio” value ([1]; P2Y12 inhibitor withdrawal >1 year) of the same molecule?
A: 1.01 (95% CI 0.80-1.28)

Q: And the “CVD, MI, or Stroke: Hazard Ratio” value ([1]; P2Y12 inhibitor withdrawal >30 to 1 year)?
A: 0.84 (95% CI 0.70-1.02)

Q: What about the “Composite of CV Death/MI/Stroke, landmark: Hazard Ratio” value (from here on “Composite … Hazard Ratio”) ([2]; 60 mg bd vs placebo, 1-360 days) of the same molecule?
A: 0.83

Q: And the “Composite … Hazard Ratio” value ([2]; 60 mg bd vs placebo, 361 days or more)?
A: 0.84

Q: And the “Relative risk reduction (RRR) for the composite endpoint” value ([2]; from 1 to 360 days)?
A: 17%

Q: And the “Relative risk reduction (RRR) for the composite endpoint” value ([2]; from 361 days and onwards)?
A: 16%

Q: What about the “Composite … Hazard Ratio” value ([2]; 90 mg bd vs placebo, 1-360 days) of the same molecule?
A: 0.87

Q: And the “Composite … Hazard Ratio” value ([2]; 90 mg bd vs placebo, 361 days or more)?
A: 0.84

Q: What about the “effect of a high-fat meal on peak plasma concentration (cmax)” value [3] of the same molecule?
A: no effect

Q: What about the “ratio of fatal bleeding events over TIMI major bleeding events” value ([4]; 60 mg arm) of the same molecule?
A: 11/115

Q: What about the “ratio of fatal bleeding events over TIMI major bleeding events” value ([4]; 90 mg arm) of the same molecule?
A: 6/127

Read-outs that look alike come from different tables or passages of the source.
